From ChEMBL document CHEMBL1138679, “Three-dimensional quantitative structure-activity relationship analysis of a set of Plasmodium falciparum dihydrofolate reductase inhibitors using a pharmacophore generation approach” (J Med Chem, 2004)

The chains behind the UniProt entries cited, without tags or fusion partners. Where a name states a change or a piece, a line headed by the entry shows the natural chain unless it says otherwise.
UniProt P13922: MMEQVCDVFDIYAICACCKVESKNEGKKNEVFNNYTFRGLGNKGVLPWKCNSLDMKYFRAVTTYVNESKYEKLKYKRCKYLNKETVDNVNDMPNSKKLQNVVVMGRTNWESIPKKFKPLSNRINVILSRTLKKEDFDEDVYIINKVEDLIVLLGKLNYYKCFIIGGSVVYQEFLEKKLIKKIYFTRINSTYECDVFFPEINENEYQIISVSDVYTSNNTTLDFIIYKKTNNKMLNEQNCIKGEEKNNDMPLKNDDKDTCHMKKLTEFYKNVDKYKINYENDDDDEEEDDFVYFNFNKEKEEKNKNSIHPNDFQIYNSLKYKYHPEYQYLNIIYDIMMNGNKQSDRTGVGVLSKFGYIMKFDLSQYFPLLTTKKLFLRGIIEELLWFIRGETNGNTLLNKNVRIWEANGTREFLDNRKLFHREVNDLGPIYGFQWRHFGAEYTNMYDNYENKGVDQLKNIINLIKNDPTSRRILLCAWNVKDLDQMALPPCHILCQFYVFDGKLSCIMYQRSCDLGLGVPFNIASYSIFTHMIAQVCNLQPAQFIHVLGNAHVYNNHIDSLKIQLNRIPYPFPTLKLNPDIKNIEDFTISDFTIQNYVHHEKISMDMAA

Target: Bifunctional dihydrofolate reductase-thymidylate synthase (Plasmodium falciparum K1, UniProt P13922)
Assay: Inhibition constant against Plasmodium falciparum dihydrofolate reductase

Work on `CC1(C)N=C(N)N=C(N)N1c1cccc(Cl)c1` yielded a Ki of 90 nM.
